Reference: patent US8765779B2, “Tricyclic derivatives and their pharmaceutical use and compositions” (Cephalon, Inc., priority 2009, dated 2014)

Protein sequences, listed by entry. Tags and fused reporters are not part of them.
UniProt P50406, whole entry: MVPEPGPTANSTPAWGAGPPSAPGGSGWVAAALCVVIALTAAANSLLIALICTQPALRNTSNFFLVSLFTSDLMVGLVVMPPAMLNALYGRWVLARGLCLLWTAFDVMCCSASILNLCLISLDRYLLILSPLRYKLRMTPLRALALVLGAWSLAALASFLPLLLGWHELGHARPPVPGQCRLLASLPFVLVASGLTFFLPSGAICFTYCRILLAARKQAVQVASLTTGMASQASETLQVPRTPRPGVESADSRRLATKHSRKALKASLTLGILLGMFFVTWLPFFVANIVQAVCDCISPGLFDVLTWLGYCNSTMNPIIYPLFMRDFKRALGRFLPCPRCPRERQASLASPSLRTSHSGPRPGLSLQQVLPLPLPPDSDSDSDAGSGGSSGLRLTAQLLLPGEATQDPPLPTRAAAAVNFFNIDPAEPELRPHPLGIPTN

Target: T1, human 5-HT6 receptor (Homo sapiens, UniProt P50406)
T1 construct: host or cells: CHO-K1 cells, stably transfected; membranes prepared in house
Test: Human 5-HT6 Receptor Binding Assay ([3H]LSD displacement, scintillation beads)
Method: Human 5-HT6 Receptor Binding Assay
Membranes were prepared from CHO—K1 cells stably transfected with the human 5-HT6 receptor (Euroscreen; ES-316-C). The cells were grown in Gibco Advanced DMEM-F12 (Cat#12634010) containing 2% dialyzed FBS (Hyclone Cat#SH30079.03). The cells were harvested in phosphate buffered saline (PBS) containing 0.1 mM EDTA and pelleted by centrifugation (1000×g), the supernatant was discarded and the pellets were stored at −80° C. prior to membrane preparation. Membranes were prepared as previously described (J Bio Chem. 1992, 267 (14) 9844-51). […] The membranes were centrifuged at 40,000×g for 30 min at 4° C. and the pellets were resuspended in membrane buffer containing 250 mM sucrose, and protein concentration was determined using the Coomassie Plus kit (Pierce Biotechnology, Rockford, Ill.).
Membranes prepared from cells expressing recombinant human 5-HT6 receptor (h5-HT6) were resuspended in assay buffer containing 50 mM Tris HCl, (pH7.4), 4 mM CaCl2, 10 μg/mL saponin, and 0.1% (w/v) ascorbic acid. […] Plates were read using the Microbeta Trilux 1450 LSC and luminescence counter. Data were analyzed by nonlinear […] using the dose-response equation (variable slope) to calculate IC50 in XLfit4 (ID Business Solutions Inc.): y=(Bottom+((Top−Bottom)/(1+((IC50/x)^Hill slope)))) […]

| Ki (membranes of CHO-K1 cells with recombinant human 5-HT6, 4 nM [3H]LSD, Table 1, class symbols, read-out: h5-HT6 (Ki)) | SMILES | Ki (h5-HT6 (Ki, nM)) |
| --- | --- | --- |
|  | CC1(C(F)F)NCCc2c1oc1cc(S(=O)(=O)c3cccc(F)c3)ccc21 (centres unmarked) [Example 508] | < 500 nM |
| < 500 nM | O=S(=O)(c1cccc(F)c1)c1ccc2c3c(oc2c1)C1(CCCOC1)NCC3 (centres unmarked) [Example 22, 7-[(3-Fluorophenyl)sulfonyl]-3,4,5′,6′-tetrahydro-2H,4′H-spiro[1-benzofuro[2,3-c]pyridine-1,3′-pyran]] |  |

Read-outs that look alike come from different tables or passages of the source.
